{"source": "patent US20250325526A1", "about": "“USE OF TETRAHYDRONAPHTHYRIDINE DERIVATIVE FOR PREPARING PRODUCT FOR IMPROVING HYPERPIGMENTATION” (SCINNOHUB PHARMACEUTICAL CO., LTD, priority 2022, published 2025)", "tested_on": "melanin granules", "test": "Rat melasma model: Fontana-Masson staining of melanin granules", "format": "in vivo, SD rats", "details": "skin collected Day 58, tranexamic acid 5 mg/mL", "source_text": "3.1 Modeling: Before the experiment, on Day 0, SD rats (purchased from Beijing Vital River Experimental Animal Technology Co., Ltd., SPF grade, female, 7-8 weeks old, weighing 200±20 g) were randomly grouped and numbered. The hairs on the backs of animals in each group were shaved using an electric shaver, and the short hairs on the skin were removed with a depilatory cream to fully expose the back skin. The hair removal area was slightly larger than the actual modeling area (5 cm×5 cm). Each rat was depilated once every 2-3 days to ensure that the back skin was fully exposed. On the next day (Day 1), rats in each group were weighed, and the weights were recorded when the electronic scale reading was stable. A progesterone injection was injected intramuscularly at the base of the rat's thigh (alternately between the thighs on both sides), with a drug concentration of 20 mg/mL and an injection dose of 25 mg/kg, once a day. After the intramuscular injection, the rat's back skin was irradiated with ultraviolet light at a wavelength of 280-320 nm. The light source was about 30 cm away from the rat's back skin, and the irradiation time lasted for 60 minutes each time, for a total of 4 weeks. […]"}
{"molecule": "NC[C@H]1CC[C@H](C(=O)O)CC1", "note": "[tranexamic acid, Tranexamic acid]", "values": [{"measurement": "distribution of melanin granules", "result": "distributed in a band shape but mainly concentrated in the basal layer and stratum spinosum"}]}
